Literature values in US20050136043A1, “TGFbeta signaling inhibitors” (Ludwig Institute for Cancer Research, priority 2003, published 2005).

Sequences of proteins named here, by UniProt entry; tags and fusion partners are left off.
UniProt Q16539, whole entry: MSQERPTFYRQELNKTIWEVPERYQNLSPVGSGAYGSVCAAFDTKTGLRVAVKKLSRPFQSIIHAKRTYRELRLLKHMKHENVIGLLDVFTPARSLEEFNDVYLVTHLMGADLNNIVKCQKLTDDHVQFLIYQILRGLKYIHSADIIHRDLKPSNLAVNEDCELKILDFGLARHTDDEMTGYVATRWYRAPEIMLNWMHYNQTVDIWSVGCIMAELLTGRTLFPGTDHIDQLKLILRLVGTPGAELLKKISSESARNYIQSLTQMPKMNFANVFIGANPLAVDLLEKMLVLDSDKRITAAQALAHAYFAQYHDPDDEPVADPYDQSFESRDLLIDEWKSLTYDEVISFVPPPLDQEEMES

Target: p38 MAP (Homo sapiens, UniProt Q16539)
Conditions: cited from earlier work

In the case of `CCc1nc(-c2ccc(OC)cc2)[nH]c1-c1ccncc1` [SB202474], the “Effect on p38 kinase” value is listed as “does not affect”.
